Values of other authors, collected in patent publication US20080260691A1, “Prodrugs of Ribavirin with Improved Hepatic Delivery” (priority 2004, published 2008).

Conditions: orally administered

NC(=O)c1ncn([C@@H]2O[C@H](CO)[C@@H](O)[C@H]2O)n1 [ribavirin]
toxicity, side effects: dose-dependent hemolytic anemia and depression
